Target: T1, hog liver glycinamide ribonucleotide formyltransferase (GARFTase) (Sus scrofa, UniProt A0A8W4FJW8)
T1 construct: hog liver glycinamide ribonucleotide formyltransferase; from tissue; host or cells: hog liver
T1 sequence (A0A8W4FJW8 1-1009): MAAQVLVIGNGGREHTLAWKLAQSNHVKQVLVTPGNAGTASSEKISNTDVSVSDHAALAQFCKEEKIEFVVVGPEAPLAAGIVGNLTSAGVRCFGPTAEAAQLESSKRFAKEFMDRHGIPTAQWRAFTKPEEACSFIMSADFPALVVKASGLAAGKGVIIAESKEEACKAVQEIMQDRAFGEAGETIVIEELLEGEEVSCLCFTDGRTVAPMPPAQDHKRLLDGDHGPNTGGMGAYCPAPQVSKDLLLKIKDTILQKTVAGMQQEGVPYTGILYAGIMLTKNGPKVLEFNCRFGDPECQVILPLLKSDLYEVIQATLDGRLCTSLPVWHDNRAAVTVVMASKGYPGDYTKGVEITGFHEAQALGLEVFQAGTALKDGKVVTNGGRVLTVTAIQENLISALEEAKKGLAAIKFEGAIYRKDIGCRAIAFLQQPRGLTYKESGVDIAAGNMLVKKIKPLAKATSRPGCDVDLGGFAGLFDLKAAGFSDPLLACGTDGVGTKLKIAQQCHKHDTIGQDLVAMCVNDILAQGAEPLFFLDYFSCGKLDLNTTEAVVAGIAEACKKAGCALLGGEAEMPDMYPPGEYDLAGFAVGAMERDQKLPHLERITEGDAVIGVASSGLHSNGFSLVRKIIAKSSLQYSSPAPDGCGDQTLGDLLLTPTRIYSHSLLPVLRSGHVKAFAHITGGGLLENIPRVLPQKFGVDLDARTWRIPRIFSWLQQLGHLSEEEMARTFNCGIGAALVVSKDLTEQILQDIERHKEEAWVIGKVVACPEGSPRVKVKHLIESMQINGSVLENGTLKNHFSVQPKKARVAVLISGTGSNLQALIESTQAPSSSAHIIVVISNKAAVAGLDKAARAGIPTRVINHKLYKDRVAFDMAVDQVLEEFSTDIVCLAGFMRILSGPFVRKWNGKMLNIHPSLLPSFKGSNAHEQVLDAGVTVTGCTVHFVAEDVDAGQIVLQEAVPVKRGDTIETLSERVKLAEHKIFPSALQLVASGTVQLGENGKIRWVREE
Assay: Inhibition of hog liver glycinamide ribonucleotide formyltransferase
Type: biochemical
From the text: The representative compound of the present invention is 10-formyl-5,8,10-trideazatetrahydrofolic acid (FTDF) having the formula 1.

## Nc1nc2c(c(=O)[nH]1)CC(CCc1ccc(C(=O)N[C@@H](CCC(=O)O)C(=O)O)cc1)CN2 (stereo partly shown) [DDATHF, 5,10-dideazatetrahydrofolic acid]
  IC50: 220 nM

Source: patent US5145854A, “1-formyl-5,8,10-trideazafolates” (priority 1991, dated 1992)
